According to patent US12172986B2, “Splicing modulator antibody-drug conjugates and methods of use” (EISAI R&D MANAGEMENT CO., LTD., priority 2018, dated 2024):

Tests used:
Assay type in all cases: physicochemical
[1] = SEC analysis - aggregation / percent monomer; conditions: anti-EPHA2 ADCs
Protocol: The peak area absorbance at 280 nm was determined for the high molecular weight and monomeric conjugate components by area under the curve integration.
SEC analysis was performed as described in section 3.3.2.

[2] = HPLC analysis - free drug; conditions: anti-EPHA2 ADCs
Protocol: Conjugate was precipitated with 10 volumes of acetonitrile on ice for 2 hours and spun down. Supernatants containing residual unconjugated payload were then injected onto an Agilent Poroshell 120 SB—C18 120A column (4.6×100 mm, 2.7 μm) and eluted with a gradient of 45% B to 70% B over 10 min at RT. Mobile phase A was 100% water, mobile phase B was 100% acetonitrile, and the flow rate was 0.6 mL/min with detection at 252 nm. The amount of residual free drug was quantified via UV detection with comparison to the external standard curve of unconjugated linker-payload.
HPLC analysis was performed as described in section 3.3.3.

LC/MS analysis - DAR = conditions: anti-EPHA2 ADCs, Table 17

Molecule	Percent Monomer [1]	Free Drug (%) [2]	DAR (LC/MS analysis - DAR)
AB206-ADL1-D14 (conjugate) heavy: EVQLLESGGGLVQPGGSLRLSCAASGFTFSHYMMAWVRQAPGKGLEWVSRIGPSGGPTHYADSVKGRFTISRDNSKNTLYLQMNSLRAEDTAVYYCAGYDSGYDYVAVAGPAEYFQHWGQGTLVTVSSASTKGPSVFPLAPSSKSTSGGTAALGCLVKDYFPEPVTVSWNSGALTSGVHTFPAVLQSSGLYSLSSVVTVPSSSLGTQTYICNVNHKPSNTKVDKKV[sequence of human IgG1 Fc not given] light: DIQMTQSPSSLSASVGDRVTITCRASQSISTWLAWYQQKPGKAPKLLIYKASNLHTGVPSRFSGSGSGTEFSLTISGLQPDDFATYYCQQYNSYSRTFGQGTKVEIKRTVAAPSVFIFPPSDEQLKSGTASVVCLLNNFYPREAKVQWKVDNALQSGNSQESVTEQDSKDSTYSLSSTLTLSKADYEKHKVYACEVTHQGLSSPVTKSFNRGEC	80.000%	<2%	–
AB206-ADL5-D19 (conjugate) heavy: EVQLLESGGGLVQPGGSLRLSCAASGFTFSHYMMAWVRQAPGKGLEWVSRIGPSGGPTHYADSVKGRFTISRDNSKNTLYLQMNSLRAEDTAVYYCAGYDSGYDYVAVAGPAEYFQHWGQGTLVTVSSASTKGPSVFPLAPSSKSTSGGTAALGCLVKDYFPEPVTVSWNSGALTSGVHTFPAVLQSSGLYSLSSVVTVPSSSLGTQTYICNVNHKPSNTKVDKKV[sequence of human IgG1 Fc not given] light: DIQMTQSPSSLSASVGDRVTITCRASQSISTWLAWYQQKPGKAPKLLIYKASNLHTGVPSRFSGSGSGTEFSLTISGLQPDDFATYYCQQYNSYSRTFGQGTKVEIKRTVAAPSVFIFPPSDEQLKSGTASVVCLLNNFYPREAKVQWKVDNALQSGNSQESVTEQDSKDSTYSLSSTLTLSKADYEKHKVYACEVTHQGLSSPVTKSFNRGEC	97.000%	<2%	–
AB206-ADL5-D15 (conjugate) heavy: EVQLLESGGGLVQPGGSLRLSCAASGFTFSHYMMAWVRQAPGKGLEWVSRIGPSGGPTHYADSVKGRFTISRDNSKNTLYLQMNSLRAEDTAVYYCAGYDSGYDYVAVAGPAEYFQHWGQGTLVTVSSASTKGPSVFPLAPSSKSTSGGTAALGCLVKDYFPEPVTVSWNSGALTSGVHTFPAVLQSSGLYSLSSVVTVPSSSLGTQTYICNVNHKPSNTKVDKKV[sequence of human IgG1 Fc not given] light: DIQMTQSPSSLSASVGDRVTITCRASQSISTWLAWYQQKPGKAPKLLIYKASNLHTGVPSRFSGSGSGTEFSLTISGLQPDDFATYYCQQYNSYSRTFGQGTKVEIKRTVAAPSVFIFPPSDEQLKSGTASVVCLLNNFYPREAKVQWKVDNALQSGNSQESVTEQDSKDSTYSLSSTLTLSKADYEKHKVYACEVTHQGLSSPVTKSFNRGEC	96.000%	<2%	–
AB206-ADL5-D25 (conjugate) heavy: EVQLLESGGGLVQPGGSLRLSCAASGFTFSHYMMAWVRQAPGKGLEWVSRIGPSGGPTHYADSVKGRFTISRDNSKNTLYLQMNSLRAEDTAVYYCAGYDSGYDYVAVAGPAEYFQHWGQGTLVTVSSASTKGPSVFPLAPSSKSTSGGTAALGCLVKDYFPEPVTVSWNSGALTSGVHTFPAVLQSSGLYSLSSVVTVPSSSLGTQTYICNVNHKPSNTKVDKKV[sequence of human IgG1 Fc not given] light: DIQMTQSPSSLSASVGDRVTITCRASQSISTWLAWYQQKPGKAPKLLIYKASNLHTGVPSRFSGSGSGTEFSLTISGLQPDDFATYYCQQYNSYSRTFGQGTKVEIKRTVAAPSVFIFPPSDEQLKSGTASVVCLLNNFYPREAKVQWKVDNALQSGNSQESVTEQDSKDSTYSLSSTLTLSKADYEKHKVYACEVTHQGLSSPVTKSFNRGEC	96.000%	<2%	6.000
AB206-ADL10-D1 (conjugate) heavy: EVQLLESGGGLVQPGGSLRLSCAASGFTFSHYMMAWVRQAPGKGLEWVSRIGPSGGPTHYADSVKGRFTISRDNSKNTLYLQMNSLRAEDTAVYYCAGYDSGYDYVAVAGPAEYFQHWGQGTLVTVSSASTKGPSVFPLAPSSKSTSGGTAALGCLVKDYFPEPVTVSWNSGALTSGVHTFPAVLQSSGLYSLSSVVTVPSSSLGTQTYICNVNHKPSNTKVDKKV[sequence of human IgG1 Fc not given] light: DIQMTQSPSSLSASVGDRVTITCRASQSISTWLAWYQQKPGKAPKLLIYKASNLHTGVPSRFSGSGSGTEFSLTISGLQPDDFATYYCQQYNSYSRTFGQGTKVEIKRTVAAPSVFIFPPSDEQLKSGTASVVCLLNNFYPREAKVQWKVDNALQSGNSQESVTEQDSKDSTYSLSSTLTLSKADYEKHKVYACEVTHQGLSSPVTKSFNRGEC	97.000%	<2%	–
AB206-ADL12-D1 (conjugate) heavy: EVQLLESGGGLVQPGGSLRLSCAASGFTFSHYMMAWVRQAPGKGLEWVSRIGPSGGPTHYADSVKGRFTISRDNSKNTLYLQMNSLRAEDTAVYYCAGYDSGYDYVAVAGPAEYFQHWGQGTLVTVSSASTKGPSVFPLAPSSKSTSGGTAALGCLVKDYFPEPVTVSWNSGALTSGVHTFPAVLQSSGLYSLSSVVTVPSSSLGTQTYICNVNHKPSNTKVDKKV[sequence of human IgG1 Fc not given] light: DIQMTQSPSSLSASVGDRVTITCRASQSISTWLAWYQQKPGKAPKLLIYKASNLHTGVPSRFSGSGSGTEFSLTISGLQPDDFATYYCQQYNSYSRTFGQGTKVEIKRTVAAPSVFIFPPSDEQLKSGTASVVCLLNNFYPREAKVQWKVDNALQSGNSQESVTEQDSKDSTYSLSSTLTLSKADYEKHKVYACEVTHQGLSSPVTKSFNRGEC	90.000%	<2%	–
AB206-ADL12-D2 (conjugate) heavy: EVQLLESGGGLVQPGGSLRLSCAASGFTFSHYMMAWVRQAPGKGLEWVSRIGPSGGPTHYADSVKGRFTISRDNSKNTLYLQMNSLRAEDTAVYYCAGYDSGYDYVAVAGPAEYFQHWGQGTLVTVSSASTKGPSVFPLAPSSKSTSGGTAALGCLVKDYFPEPVTVSWNSGALTSGVHTFPAVLQSSGLYSLSSVVTVPSSSLGTQTYICNVNHKPSNTKVDKKV[sequence of human IgG1 Fc not given] light: DIQMTQSPSSLSASVGDRVTITCRASQSISTWLAWYQQKPGKAPKLLIYKASNLHTGVPSRFSGSGSGTEFSLTISGLQPDDFATYYCQQYNSYSRTFGQGTKVEIKRTVAAPSVFIFPPSDEQLKSGTASVVCLLNNFYPREAKVQWKVDNALQSGNSQESVTEQDSKDSTYSLSSTLTLSKADYEKHKVYACEVTHQGLSSPVTKSFNRGEC	80.000%	<2%	–
AB206-ADL5-D2 (conjugate) heavy: EVQLLESGGGLVQPGGSLRLSCAASGFTFSHYMMAWVRQAPGKGLEWVSRIGPSGGPTHYADSVKGRFTISRDNSKNTLYLQMNSLRAEDTAVYYCAGYDSGYDYVAVAGPAEYFQHWGQGTLVTVSSASTKGPSVFPLAPSSKSTSGGTAALGCLVKDYFPEPVTVSWNSGALTSGVHTFPAVLQSSGLYSLSSVVTVPSSSLGTQTYICNVNHKPSNTKVDKKV[sequence of human IgG1 Fc not given] light: DIQMTQSPSSLSASVGDRVTITCRASQSISTWLAWYQQKPGKAPKLLIYKASNLHTGVPSRFSGSGSGTEFSLTISGLQPDDFATYYCQQYNSYSRTFGQGTKVEIKRTVAAPSVFIFPPSDEQLKSGTASVVCLLNNFYPREAKVQWKVDNALQSGNSQESVTEQDSKDSTYSLSSTLTLSKADYEKHKVYACEVTHQGLSSPVTKSFNRGEC	99.000%	<2%	–
AB206-ADL1-D4 (conjugate) heavy: EVQLLESGGGLVQPGGSLRLSCAASGFTFSHYMMAWVRQAPGKGLEWVSRIGPSGGPTHYADSVKGRFTISRDNSKNTLYLQMNSLRAEDTAVYYCAGYDSGYDYVAVAGPAEYFQHWGQGTLVTVSSASTKGPSVFPLAPSSKSTSGGTAALGCLVKDYFPEPVTVSWNSGALTSGVHTFPAVLQSSGLYSLSSVVTVPSSSLGTQTYICNVNHKPSNTKVDKKV[sequence of human IgG1 Fc not given] light: DIQMTQSPSSLSASVGDRVTITCRASQSISTWLAWYQQKPGKAPKLLIYKASNLHTGVPSRFSGSGSGTEFSLTISGLQPDDFATYYCQQYNSYSRTFGQGTKVEIKRTVAAPSVFIFPPSDEQLKSGTASVVCLLNNFYPREAKVQWKVDNALQSGNSQESVTEQDSKDSTYSLSSTLTLSKADYEKHKVYACEVTHQGLSSPVTKSFNRGEC	95.000%	<2%	–
AB206-ADL1-D8 (conjugate) heavy: EVQLLESGGGLVQPGGSLRLSCAASGFTFSHYMMAWVRQAPGKGLEWVSRIGPSGGPTHYADSVKGRFTISRDNSKNTLYLQMNSLRAEDTAVYYCAGYDSGYDYVAVAGPAEYFQHWGQGTLVTVSSASTKGPSVFPLAPSSKSTSGGTAALGCLVKDYFPEPVTVSWNSGALTSGVHTFPAVLQSSGLYSLSSVVTVPSSSLGTQTYICNVNHKPSNTKVDKKV[sequence of human IgG1 Fc not given] light: DIQMTQSPSSLSASVGDRVTITCRASQSISTWLAWYQQKPGKAPKLLIYKASNLHTGVPSRFSGSGSGTEFSLTISGLQPDDFATYYCQQYNSYSRTFGQGTKVEIKRTVAAPSVFIFPPSDEQLKSGTASVVCLLNNFYPREAKVQWKVDNALQSGNSQESVTEQDSKDSTYSLSSTLTLSKADYEKHKVYACEVTHQGLSSPVTKSFNRGEC	95.000%	<2%	–
